## Measured affinities in a library of Ab-14 heavy chain variants

Source: Engelhart et al. 2022 (doi:10.1038/s41597-022-01779-4), MIT Lincoln Laboratory and A-Alpha Bio; data file from the FLAb repository.

The target is the same throughout: PDVDLGDISGINAS, from the HR2 region of SARS-CoV-2 spike.

Parent: Ab-14, a human scFv built as VH, a 15-residue (Gly4Ser)3 linker, VL. Only the CDRs of the heavy chain vary.
VH: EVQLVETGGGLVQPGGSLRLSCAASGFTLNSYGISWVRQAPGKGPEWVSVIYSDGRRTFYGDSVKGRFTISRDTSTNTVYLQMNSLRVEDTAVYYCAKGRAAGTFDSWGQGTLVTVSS
VL: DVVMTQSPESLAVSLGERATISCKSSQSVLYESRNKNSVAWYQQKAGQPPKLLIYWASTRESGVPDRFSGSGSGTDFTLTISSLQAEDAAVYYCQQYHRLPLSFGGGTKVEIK

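Phage display of a naive human antibody library on the peptide gave the parent. Variants in AAYL49 differ from the parent at up to three CDR positions; double and triple changes were sampled at random. In AlphaSeq, yeast of one mating type display the scFv and yeast of the other type display the target. The frequency of each diploid, read from paired DNA barcodes, reflects how well the two displayed proteins bind. Read counts were normalised to the haploid input and turned into Kd by a linear fit to BCL2-family pairs of known affinity, for each replicate. Each pool was mated in three replicate cultures.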

Changes read parent residue, position, new residue, counted from the first residue of the VH shown. The read-out is the apparent dissociation constant on a log10 scale (nM): the lower, the stronger. A pair that was not seen in that replicate is written "ND"; this usually means weak binding, but a binder can also be missed. Parent in this assay: reference entry 0.65, copy in this library 4.11 (one replicate of three). Empty control strains, which show no peptide, gave a signal in 15% of pairings with library AAYL49; the median was 4.06 and 95% of these signals were weaker than 2.83. No background was subtracted. Also given: how often the same scFv was detected with the empty control strains, with their mean in brackets.

| changes | replicates, log10 nM | empty controls |
|---|---|---|
| Y52S R56H S63V | ND ND ND | 1 of 9 (2.92) |
| V50Y I51S T58S | ND ND ND | 1 of 9 (4.32) |
| G33W R57Y G103M | ND ND ND | 2 of 9 (4.30) |
| R100K T104D F105I | ND ND ND | 1 of 9 (4.88) |
| R56D A102Y D106I | 4.60 3.92 ND | 0 of 9 |
| T28D V64F T104R | 1.68 2.07 2.22 | 2 of 9 (3.94) |
| G26Q T104R | 3.26 4.80 3.88 | 5 of 9 (4.30) |
| G61I F105C S107T | ND ND ND | 2 of 9 (3.90) |
| Y52D G103K S107Y | ND ND ND | 0 of 9 |
| G26R G55A | ND ND ND | 0 of 9 |
| G33E G55P T104G | ND ND ND | 1 of 9 (4.04) |
| G33E S35P G61V | 3.26 ND ND | 1 of 9 (3.62) |
| F27L S35Y R57C | ND ND ND | 0 of 9 |
| Y32N I34T G55Y | ND ND 2.26 | 0 of 9 |
| S31D F59W D106Y | ND ND ND | 0 of 9 |
| I51A S53I G103Q | ND ND ND | 0 of 9 |
| L29W D54I S63A | ND ND ND | 0 of 9 |
| Y60R K65L G103W | ND ND ND | 0 of 9 |
| V50M F59G G61M | ND ND ND | 0 of 9 |
| I51K | ND ND ND | 1 of 9 (4.45) |
| G55Q R100L G103M | ND ND ND | 0 of 9 |
| I51C T58C G103V | ND 3.90 ND | 1 of 9 (3.60) |
| F27E Y32Q I34F | ND ND ND | 2 of 9 (4.53) |
| S35R Y60T T104R | ND ND ND | 0 of 9 |
| V50C F59M D62Q | ND ND ND | 4 of 9 (4.14) |
| R100S A102K D106F | ND ND ND | 3 of 9 (4.35) |
| S31I S53L D54Q | ND ND ND | 1 of 9 (3.15) |
| S35L G55T T58M | 5.33 ND 4.83 | 2 of 9 (4.45) |
| N30T V64D D106R | ND ND ND | 1 of 9 (3.27) |
| G26L V64I G99N | ND ND ND | 3 of 9 (3.52) |
| S53R D54W R100I | 4.11 ND ND | 1 of 9 (3.04) |
| G26Q G33T G55K | 5.25 ND 4.90 | 3 of 9 (4.40) |
| D54F G55C T58A | ND 4.72 ND | 1 of 9 (4.46) |
| L29E V64R T104V | ND 3.54 4.19 | 1 of 9 (3.85) |
| G33M S35C Y60R | ND ND 4.05 | 0 of 9 |
| G33I D106F S107T | ND ND ND | 4 of 9 (3.80) |
| T28Q G33Y | 3.62 ND ND | 2 of 9 (3.98) |
| T28L S31E Y32W | 1.24 1.35 1.27 | 1 of 9 (4.37) |
| T28K G33C F105V | ND 5.21 ND | 3 of 9 (4.24) |
| T58H G61M D62I | ND ND ND | 0 of 9 |

The first 2 variants above that were never detected:

{"changes": "Y52S R56H S63V", "replicates, log10 nM": "ND ND ND", "empty controls": "1 of 9 (2.92)"}
{"changes": "V50Y I51S T58S", "replicates, log10 nM": "ND ND ND", "empty controls": "1 of 9 (4.32)"}